Assays:
[1] = molecular target: glucocorticoid receptor (GR) recombinant ligand binding domain (LBD) (Homo sapiens (Human), UniProt P04150); assay: GR binding fluorescence polarisation (FP) assay; conditions: read-out: Mean GR Binding IC50, displacement of fluorescently tagged ligand
[2] = system: induction of TAT by dexamethasone in HepG2 cells; assay: Hep G2 TAT assay (inhibition of dexamethasone-induced TAT); conditions: read-out: Hep G2 TAT Ki, challenge of 100 nM dexamethasone, IC50 converted to Ki by Cheng and Prusoff equation

By UniProt entry, the sequences of proteins in these tests, tags left out. Residues count along the entry.
UniProt P04150, 524-758 limits assumed: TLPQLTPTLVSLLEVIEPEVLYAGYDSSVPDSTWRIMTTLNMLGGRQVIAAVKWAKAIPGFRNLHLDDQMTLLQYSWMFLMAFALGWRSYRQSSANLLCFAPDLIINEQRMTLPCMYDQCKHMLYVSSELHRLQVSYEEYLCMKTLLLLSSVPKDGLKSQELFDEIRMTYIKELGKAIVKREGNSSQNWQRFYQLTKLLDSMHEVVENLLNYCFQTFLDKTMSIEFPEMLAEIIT

IC50 [1]: 80 nM
SMILES: CCCn1ncc(S(=O)(=O)N2CCN(c3ccc4c(cnn4-c4ccc(F)cc4)c3)C[C@H]2C)c1C
Ki [2]: 1290 nM

From patent publication US11787780B2 (CORCEPT THERAPEUTICS INCORPORATED, priority 2020, dated 2023)
